Values quoted from earlier work in patent publication US20070004639A1, “Methods and compositions for treating Parkinson's disease” (BodyBio, Inc., priority 2005, published 2007).

System: Parkinson's Disease
Conditions: in vivo; cited from earlier work

## carbidopa/levodopa
  patients developing motor complications: 50-80%
